For this test, the target named is human Nav1.x channels (Homo sapiens, UniProt P35499). Format: cell-based. The note with it: read-out: IC50 (nM) Nav1.4.

Amino acid sequences for entries named in this document (tags omitted).
UniProt P35499, whole entry: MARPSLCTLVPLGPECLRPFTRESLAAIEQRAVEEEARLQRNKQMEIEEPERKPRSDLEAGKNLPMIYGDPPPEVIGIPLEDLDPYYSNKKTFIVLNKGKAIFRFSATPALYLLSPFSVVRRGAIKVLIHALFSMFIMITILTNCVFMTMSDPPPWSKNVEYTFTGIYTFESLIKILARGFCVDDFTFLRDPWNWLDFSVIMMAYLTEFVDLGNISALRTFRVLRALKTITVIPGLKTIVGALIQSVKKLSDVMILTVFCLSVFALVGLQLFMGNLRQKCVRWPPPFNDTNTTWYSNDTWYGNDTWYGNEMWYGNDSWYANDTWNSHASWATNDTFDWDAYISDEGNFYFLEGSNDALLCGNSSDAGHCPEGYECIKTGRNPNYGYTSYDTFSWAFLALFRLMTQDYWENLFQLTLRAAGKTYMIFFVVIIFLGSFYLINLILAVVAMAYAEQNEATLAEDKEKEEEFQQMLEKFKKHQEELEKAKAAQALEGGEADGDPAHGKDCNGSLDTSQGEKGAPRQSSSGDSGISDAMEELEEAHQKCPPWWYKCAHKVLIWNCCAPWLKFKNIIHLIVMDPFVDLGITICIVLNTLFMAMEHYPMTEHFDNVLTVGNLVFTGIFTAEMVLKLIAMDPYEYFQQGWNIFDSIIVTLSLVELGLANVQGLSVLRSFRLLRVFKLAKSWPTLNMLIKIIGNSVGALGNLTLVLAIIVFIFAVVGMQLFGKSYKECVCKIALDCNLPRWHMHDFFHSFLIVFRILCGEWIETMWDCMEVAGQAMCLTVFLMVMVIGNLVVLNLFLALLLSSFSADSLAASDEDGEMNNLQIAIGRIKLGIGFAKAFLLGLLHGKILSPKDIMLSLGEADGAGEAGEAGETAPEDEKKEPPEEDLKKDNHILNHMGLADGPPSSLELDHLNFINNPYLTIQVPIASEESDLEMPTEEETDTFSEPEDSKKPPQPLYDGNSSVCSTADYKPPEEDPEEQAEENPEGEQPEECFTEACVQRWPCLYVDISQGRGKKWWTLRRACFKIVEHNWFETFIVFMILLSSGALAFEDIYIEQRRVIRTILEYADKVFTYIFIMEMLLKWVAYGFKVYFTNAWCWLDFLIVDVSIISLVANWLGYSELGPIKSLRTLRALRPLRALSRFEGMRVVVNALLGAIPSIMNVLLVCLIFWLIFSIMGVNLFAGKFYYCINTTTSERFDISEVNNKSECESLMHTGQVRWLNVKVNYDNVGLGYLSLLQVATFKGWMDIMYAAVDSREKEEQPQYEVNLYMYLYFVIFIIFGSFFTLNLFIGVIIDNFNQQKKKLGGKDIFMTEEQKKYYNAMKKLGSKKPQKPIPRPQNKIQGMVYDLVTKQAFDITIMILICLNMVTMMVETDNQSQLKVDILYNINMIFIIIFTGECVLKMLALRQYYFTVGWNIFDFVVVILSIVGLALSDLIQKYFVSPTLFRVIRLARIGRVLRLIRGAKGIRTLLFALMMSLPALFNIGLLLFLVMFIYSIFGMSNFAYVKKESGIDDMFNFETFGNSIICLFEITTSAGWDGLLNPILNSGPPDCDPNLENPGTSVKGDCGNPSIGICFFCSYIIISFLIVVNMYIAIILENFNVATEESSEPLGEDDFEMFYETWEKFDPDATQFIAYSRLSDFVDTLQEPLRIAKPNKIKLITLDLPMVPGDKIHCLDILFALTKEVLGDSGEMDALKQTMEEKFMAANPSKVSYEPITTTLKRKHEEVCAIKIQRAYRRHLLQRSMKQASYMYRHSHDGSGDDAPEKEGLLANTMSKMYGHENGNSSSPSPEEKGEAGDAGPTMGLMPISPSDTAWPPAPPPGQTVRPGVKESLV

One may read the IC50 as the concentration at which inhibition is half-maximal.

For “GPYCQKWMQTCDSERKCCEGMVCRLWCKKKLL-COOH [compound 63955918]”, the IC50 came to 17000 nM.

(Values after US20170334959A1 (priority 2015, published 2017).)
